IC50 data for 1 compound are collected here from ChEMBL document CHEMBL3351595, “Cyclic acyl guanidines bearing carbamate moieties allow potent and dirigible cholinesterase inhibition of either acetyl- or butyrylcholinesterase” (Bioorg Med Chem, 2014).

Sequences of proteins named here, by UniProt entry; tags and fusion partners are left off.
UniProt P81908, whole entry: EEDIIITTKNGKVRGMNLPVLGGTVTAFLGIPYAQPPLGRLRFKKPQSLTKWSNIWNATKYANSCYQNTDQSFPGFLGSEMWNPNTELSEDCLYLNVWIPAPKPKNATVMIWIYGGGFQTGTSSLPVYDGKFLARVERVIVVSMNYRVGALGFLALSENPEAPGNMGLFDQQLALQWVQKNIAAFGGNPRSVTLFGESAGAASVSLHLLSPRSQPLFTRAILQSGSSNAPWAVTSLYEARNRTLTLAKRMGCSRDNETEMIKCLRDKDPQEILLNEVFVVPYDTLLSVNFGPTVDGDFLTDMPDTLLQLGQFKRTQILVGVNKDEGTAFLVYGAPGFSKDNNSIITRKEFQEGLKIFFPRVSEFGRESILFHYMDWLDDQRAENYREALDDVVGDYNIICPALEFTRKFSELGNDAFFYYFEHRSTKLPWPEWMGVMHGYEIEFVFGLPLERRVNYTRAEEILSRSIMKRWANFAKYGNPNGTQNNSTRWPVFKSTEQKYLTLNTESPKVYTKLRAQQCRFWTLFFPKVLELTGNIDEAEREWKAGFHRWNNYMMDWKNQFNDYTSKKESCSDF

As usually defined, the IC50 is the concentration at which inhibition is half-maximal. A higher IC50 goes with a need for much substance.

In the test the target is Cholinesterase (Equus caballus, UniProt P81908). Briefly: Inhibition of equine serum BChE using ATC iodide substrate by DTNB based assay.

Compound `CNC(=O)Oc1ccc2c(c1)[C@]1(C)CCN(C)[C@@H]1N2C` [PHYSOSTIGMINE] had an IC50 of 40 nM.
